ChEMBL document CHEMBL1125403, “Hybrid cholecystokinin-A antagonists based on molecular modeling of lorglumide and L-364,718” (J Med Chem, 1992)

Amino acid sequences for entries named in this document (tags omitted).
UniProt P30551, whole entry: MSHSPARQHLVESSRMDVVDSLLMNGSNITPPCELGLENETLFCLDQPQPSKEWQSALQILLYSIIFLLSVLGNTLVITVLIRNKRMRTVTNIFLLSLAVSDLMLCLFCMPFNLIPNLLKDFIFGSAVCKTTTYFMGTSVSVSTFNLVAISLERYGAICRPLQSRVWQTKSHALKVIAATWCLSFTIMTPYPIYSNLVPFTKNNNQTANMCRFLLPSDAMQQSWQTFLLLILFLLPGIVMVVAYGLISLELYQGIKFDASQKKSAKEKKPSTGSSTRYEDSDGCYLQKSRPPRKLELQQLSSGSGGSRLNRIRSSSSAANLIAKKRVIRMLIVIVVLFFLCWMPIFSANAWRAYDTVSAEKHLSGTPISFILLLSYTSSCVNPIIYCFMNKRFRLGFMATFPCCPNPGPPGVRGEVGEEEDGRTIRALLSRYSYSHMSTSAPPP

Target: Cholecystokinin receptor type A (Rattus norvegicus, UniProt P30551)
Test: Displacement of [3H]L-364718 from Cholecystokinin type A receptor of rat pancreatic membranes
Format: cell membranes, Membrane
In short: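 Male Wistar rat pancreas membranes, homogenized in 10 mM Hepes pH 7.4/5 mM MgCl2/130 mM NaCl, stored at -80 °C. GF/B filtration, scintillation counting. Nonspecific binding with 10 μM lorglumide. IC50 from pseudo-Hill plots, Ki by Cheng-Prusoff. Mean ± SEM of three experiments.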

- Ki: 180 nM
SMILES: O=C(NC/C=C/c1ccccc1)c1cc2ccccc2[nH]1
